These are literature values, as cited in patent US20110319467A1, “Absorption Enhancement of Statins and Omega Fatty Acids” (priority 2010, published 2011).

For the data set the following is noted: single emulsifier.

As to “tocopheryl polyethylene glycol succinate”, the HLB value result is “about 13”.
